Experimental findings from PubChem BioAssay AID2642 (Johns Hopkins Ion Channel Center, 2010) are described below.

The entries are a selection whose mix differs from that of the whole data set. Active and inactive are the calls of the source.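 The calls were made as follows: active = compounds whose thallium flux B-score, printed positive for inhibition, exceeds three library SD while starting fluorescence stays within three; inactive = the rest.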

The assay addresses Potassium voltage-gated channel subfamily KQT member 1 (Homo sapiens) (UniProt P51787). The assay can be described thus: inhibitors of human KCNQ1 channel, primary screen, cell-based, thallium flux, high-throughput (AID 2642).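 Also: channel opened by potassium depolarization with thallium stimulus after 20 min compound exposure.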 The settings on record: CHO-K1 KCNQ1, FluxOR thallium flux fluorescence; at 10 µM; active compounds read high.
Turning to `CN(C)C(=O)c1cc([N+](=O)[O-])cc2c1-c1c(cc([N+](=O)[O-])cc1[N+](=O)[O-])C2=O`, the B-score was active: 10.

As for `Nc1cccc2c([As](=O)(O)O)cccc12`, the B-score is active: 6.

With `COc1cc(C(=O)NCC2(N3CCOCC3)CCCCC2)cc(Cl)c1OC(C)C`, the B-score is active: 7.

For the compound `CCC1=CC2Cc3nc4ccc(Cl)cc4c(N)c3C(C1)C2` (stereo unspecified), the B-score was active: 7.

Regarding `O=[N+]([O-])c1ccc(O)c(/C=N/Nc2ccc([N+](=O)[O-])cc2[N+](=O)[O-])c1`, the B-score was active: 15.

For `O=[N+]([O-])c1cc([N+](=O)[O-])c(CCN2CCOCC2)c([N+](=O)[O-])c1`, the B-score is active: 6.
